This is an account of results in US8138174B2, “Compounds with a combination of cannabinoid CB1 antagonism and serotonin reuptake inhibition” (Solvay Pharmaceuticals B.V., priority 2007, dated 2012).

Amino acid sequences for entries named in this document (tags omitted).
UniProt P31652, whole entry: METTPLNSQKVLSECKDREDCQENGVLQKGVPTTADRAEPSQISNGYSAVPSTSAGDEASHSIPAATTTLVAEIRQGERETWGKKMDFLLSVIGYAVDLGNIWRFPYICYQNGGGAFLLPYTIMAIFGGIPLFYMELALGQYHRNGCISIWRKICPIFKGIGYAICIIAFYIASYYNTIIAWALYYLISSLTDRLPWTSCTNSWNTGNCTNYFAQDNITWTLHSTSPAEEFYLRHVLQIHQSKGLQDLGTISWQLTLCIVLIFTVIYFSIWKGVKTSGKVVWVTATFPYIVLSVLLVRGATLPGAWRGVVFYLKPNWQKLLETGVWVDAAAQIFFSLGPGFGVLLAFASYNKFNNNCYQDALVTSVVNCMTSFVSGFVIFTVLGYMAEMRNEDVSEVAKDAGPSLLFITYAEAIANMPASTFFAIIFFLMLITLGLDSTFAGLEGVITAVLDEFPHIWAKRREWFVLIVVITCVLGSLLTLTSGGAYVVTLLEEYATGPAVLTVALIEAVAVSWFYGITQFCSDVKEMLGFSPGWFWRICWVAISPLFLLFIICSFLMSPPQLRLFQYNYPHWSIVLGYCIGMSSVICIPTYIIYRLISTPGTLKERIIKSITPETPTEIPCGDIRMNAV

The target in the test is T1, serotonin reuptake sites (Rattus norvegicus, UniProt P31652).
T1 construct: from tissue
Description: In vitro affinity for serotonin reuptake sites ([3H]-paroxetine binding, Habert 1985).

Usually Ki stands for the equilibrium dissociation constant of an inhibitor or competing ligand from its target. Lower therefore signals higher affinity. `CNCCC=C1c2ccccc2CCc2ccccc21`: the inhibition constant Ki was 12.6 nM.
To `Fc1ccc([C@@H]2CCNC[C@H]2COc2ccc3c(c2)OCO3)cc1` belongs 0.2 nM.
